{"source": "patent US8304223B2", "about": "“Isoforms of pig liver esterase” (Enzymicals AG, priority 2007, dated 2012)", "key": {"[1]": {"target": "T1, PLE 1 (γ-PLE) (Sus scrofa, UniProt Q29550)", "T1 construct": "made in house; host or cells: E. coli Origami (DE3) with pGro7 (GroEL/GroES coexpression), crude extract", "T1 sequence (Q29550 with tags, fused parts or gaps)": "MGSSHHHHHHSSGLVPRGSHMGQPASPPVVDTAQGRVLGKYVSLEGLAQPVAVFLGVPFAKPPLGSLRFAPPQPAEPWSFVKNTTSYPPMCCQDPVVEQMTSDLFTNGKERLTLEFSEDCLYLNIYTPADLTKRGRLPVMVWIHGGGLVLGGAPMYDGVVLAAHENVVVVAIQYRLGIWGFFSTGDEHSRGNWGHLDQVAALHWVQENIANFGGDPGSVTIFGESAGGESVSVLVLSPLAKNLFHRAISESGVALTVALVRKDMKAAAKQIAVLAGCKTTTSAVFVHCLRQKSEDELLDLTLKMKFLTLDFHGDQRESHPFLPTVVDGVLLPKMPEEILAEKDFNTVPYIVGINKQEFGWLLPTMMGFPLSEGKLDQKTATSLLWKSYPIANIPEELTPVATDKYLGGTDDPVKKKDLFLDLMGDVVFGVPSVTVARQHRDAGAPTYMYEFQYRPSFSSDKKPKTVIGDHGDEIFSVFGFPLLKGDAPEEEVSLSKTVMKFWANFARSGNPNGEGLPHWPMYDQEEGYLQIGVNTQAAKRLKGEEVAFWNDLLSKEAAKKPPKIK", "type": "biochemical, pig", "conditions": "inhibitor 0.01 mM, 25° C.", "procedure": "(§1) Esterase activity was determined spectrophotometrically in sodium phosphate buffer (50 mM) by means of p-nitrophenyl acetate (10 mM, dissolved in dimethyl sulfoxide) as substrate. The amount of p-nitrophenol generated was determined at a wavelength of 410 nm (ε=15*10^3 M^−1 cm^−1) at RT and pH 7.5. 1 unit (U) is defined as the amount of enzyme capable of converting 1 μM p-nitrophenol per minute under analytical conditions (Krebsfänger, N., et. al., (1998) Enzyme Microb. Technol, 22, 641-646).\n(§2) The inhibitability of the new PLE variants was determined by treating the crude extracts with any of three esterase inhibitors. […] Samples were taken at certain points in time and the remaining esterase activity was determined by the pNPA assay."}, "[2]": {"target": "T2, PLE 2 (Sus scrofa, UniProt Q29550, F477A/K481R/L479F)", "T2 construct": "made in house; host or cells: E. coli Origami (DE3) with pGro7 (GroEL/GroES coexpression), crude extract", "T2 sequence (Q29550 19-562 F477A/L479F/K481R)": "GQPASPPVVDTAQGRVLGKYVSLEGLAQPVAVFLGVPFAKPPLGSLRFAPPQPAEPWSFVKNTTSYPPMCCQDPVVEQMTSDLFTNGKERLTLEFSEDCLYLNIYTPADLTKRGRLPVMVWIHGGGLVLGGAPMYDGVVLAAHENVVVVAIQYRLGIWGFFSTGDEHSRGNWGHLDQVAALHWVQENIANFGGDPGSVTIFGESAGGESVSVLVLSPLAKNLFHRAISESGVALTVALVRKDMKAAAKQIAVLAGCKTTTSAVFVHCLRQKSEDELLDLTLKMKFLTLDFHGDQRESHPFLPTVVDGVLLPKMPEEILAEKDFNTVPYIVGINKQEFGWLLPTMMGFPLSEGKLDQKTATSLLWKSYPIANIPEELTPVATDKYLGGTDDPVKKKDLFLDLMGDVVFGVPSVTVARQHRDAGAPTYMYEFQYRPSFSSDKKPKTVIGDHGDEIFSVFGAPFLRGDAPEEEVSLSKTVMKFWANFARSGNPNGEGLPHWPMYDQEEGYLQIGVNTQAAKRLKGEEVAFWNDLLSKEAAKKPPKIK", "type": "biochemical, pig", "conditions": "inhibitor 0.01 mM, 25° C.", "procedure": "as §1, §2"}}, "note": "Like-named read-outs stand apart in the source and are kept apart here."}
{"compound": "O=S(=O)(F)Cc1ccccc1", "note": "[Phenylmethylsulfonyl fluoride (PMSF), phenylmethylsulfonyl fluoride]", "values": [{"measurement": "Remaining activity in %", "setting": "[1]; 1 min", "result": 97, "unit": "%"}, {"measurement": "Remaining activity in %", "setting": "[1]; 5 min", "result": 85, "unit": "%"}, {"measurement": "Remaining activity in %", "setting": "[1]; 30 min", "result": 55, "unit": "%"}, {"measurement": "Remaining activity in %", "setting": "[1]; 60 min", "result": 46, "unit": "%"}, {"measurement": "Remaining activity in %", "setting": "[2]; 1 min", "result": 87, "unit": "%"}, {"measurement": "Remaining activity in %", "setting": "[2]; 5 min", "result": 82, "unit": "%"}, {"measurement": "Remaining activity in %", "setting": "[2]; 30 min", "result": 50, "unit": "%"}, {"measurement": "Remaining activity in %", "setting": "[2]; 60 min", "result": 36, "unit": "%"}]}
